AlphaSeq binding of Ab-14 heavy chain variants to a spike HR2 peptide

Reference: Engelhart et al. 2022, doi:10.1038/s41597-022-01779-4. File: FLAb, binding data.

Target: peptide PDVDLGDISGINAS, taken from heptad repeat 2 (HR2) of SARS-CoV-2 spike.

Ab-14 is the parent antibody, in scFv form: VH, then a 15-residue (Gly4Ser)3 linker, then VL. The light chain is unchanged in all variants.
VH: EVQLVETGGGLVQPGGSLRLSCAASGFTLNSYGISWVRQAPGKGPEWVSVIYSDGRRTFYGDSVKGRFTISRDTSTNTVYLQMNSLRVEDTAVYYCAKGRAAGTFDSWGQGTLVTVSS
VL: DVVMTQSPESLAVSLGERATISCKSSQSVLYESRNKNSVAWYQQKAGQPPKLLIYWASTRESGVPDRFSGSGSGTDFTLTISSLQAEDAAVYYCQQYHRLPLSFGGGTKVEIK

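The starting antibody came from a phage panning campaign against this peptide. The library (AAYL49) carries one to three amino acid substitutions per variant, with no insertions or deletions. AlphaSeq pools MATa yeast showing the antibodies with MATalpha yeast showing the peptide. Mating (16 h, 30 °C) was followed by selection of diploids and sequencing of their barcodes. Read counts were normalised to the haploid input and turned into Kd by a linear fit to BCL2-family pairs of known affinity, for each replicate. Each pool was mated in three replicate cultures.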

Each variant's VH is given in full. Affinities are written as log10 Kd with Kd in nM; a lower number is a better binder. A pair that was not seen in that replicate is written "n.d."; this usually means weak binding, but a binder can also be missed.

{"VH": "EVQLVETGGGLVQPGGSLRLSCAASGFTLNSYGISWVRQAPGKGPEWVSVIYSDGRRAFYGDSVKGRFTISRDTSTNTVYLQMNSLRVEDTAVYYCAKGYAAGTIDSWGQGTLVTVSS", "replicates, log10 nM": "n.d. n.d. n.d.", "empty controls": "1/9 (3.05)"}
{"VH": "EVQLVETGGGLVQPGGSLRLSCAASGFTLNSYGISWVRQAPGKGPEWVSVTYSDGRRTFYGDSVKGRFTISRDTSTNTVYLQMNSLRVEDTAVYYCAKGRAAFTFDSWGQGTLVTVSS", "replicates, log10 nM": "n.d. n.d. n.d.", "empty controls": "0/9"}
{"VH": "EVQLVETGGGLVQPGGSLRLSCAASGFTRNSYGISWVRQAPGKGPEWVSVIYSDGRRTFQGHSVKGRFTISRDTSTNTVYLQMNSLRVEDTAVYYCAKGRAAGTFDSWGQGTLVTVSS", "replicates, log10 nM": "n.d. n.d. n.d.", "empty controls": "1/9 (3.16)"}
{"VH": "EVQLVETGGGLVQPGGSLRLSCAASGFTLNSYGISWVRQAPGKGPEWVSVIYSDGRRPFYGDSVKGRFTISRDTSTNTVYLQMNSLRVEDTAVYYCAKGRAFGTFDSWGQGTLVTVSS", "replicates, log10 nM": "n.d. n.d. n.d.", "empty controls": "0/9"}
{"VH": "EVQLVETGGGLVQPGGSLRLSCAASGSTLNSYFISWVRQAPGKGPEWVSVIYSDGRRTFYGDSVKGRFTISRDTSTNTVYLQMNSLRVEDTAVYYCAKGRAAGTCDSWGQGTLVTVSS", "replicates, log10 nM": "n.d. n.d. n.d.", "empty controls": "1/9 (4.69)"}
{"VH": "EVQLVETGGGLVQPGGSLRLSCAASGFTLNSYGISWVRQAPGKGPEWVSVIYSDGRRYFYGDSVKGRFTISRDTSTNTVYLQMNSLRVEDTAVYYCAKGRAASTFKSWGQGTLVTVSS", "replicates, log10 nM": "n.d. n.d. 4.66", "empty controls": "4/9 (3.99)"}
{"VH": "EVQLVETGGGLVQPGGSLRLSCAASGFTLNSYGISWVRQAPGKGPEWVSEIYSDGRRTEYGDSVKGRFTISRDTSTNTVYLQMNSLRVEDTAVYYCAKGRAAGTFFSWGQGTLVTVSS", "replicates, log10 nM": "n.d. n.d. 3.61", "empty controls": "4/9 (4.03)"}
{"VH": "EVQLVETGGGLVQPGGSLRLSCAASGFTLNSYGISWVRQAPGKGPEWVSVILSDGRRTFYGDSVKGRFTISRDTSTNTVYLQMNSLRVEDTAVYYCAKGRAVGTYDSWGQGTLVTVSS", "replicates, log10 nM": "n.d. n.d. n.d.", "empty controls": "0/9"}
{"VH": "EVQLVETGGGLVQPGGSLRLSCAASGFTLNSYGISWVRQAPGKGPEWVSVIYSDGRRTFYGDNVKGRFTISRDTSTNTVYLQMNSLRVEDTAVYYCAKGRAAEHFDSWGQGTLVTVSS", "replicates, log10 nM": "n.d. n.d. n.d.", "empty controls": "0/9"}
{"VH": "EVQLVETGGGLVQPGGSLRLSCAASGFTLNSYGISWVRQAPGKGPEWVSVIYSYGRRTKYGDSVKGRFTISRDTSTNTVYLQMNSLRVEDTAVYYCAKGRAAGTFDPWGQGTLVTVSS", "replicates, log10 nM": "n.d. n.d. n.d.", "empty controls": "0/9"}
{"VH": "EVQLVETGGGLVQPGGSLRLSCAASGFTLNSYMILWVRQAPGKGPEWVSVTYSDGRRTFYGDSVKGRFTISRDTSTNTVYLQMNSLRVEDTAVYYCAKGRAAGTFDSWGQGTLVTVSS", "replicates, log10 nM": "n.d. n.d. n.d.", "empty controls": "0/9"}
{"VH": "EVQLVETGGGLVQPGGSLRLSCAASGFNLNSYGSSWVRQAPGKGPEWVSVIYSMGRRTFYGDSVKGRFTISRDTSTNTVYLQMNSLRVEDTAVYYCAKGRAAGTFDSWGQGTLVTVSS", "replicates, log10 nM": "n.d. n.d. n.d.", "empty controls": "1/9 (3.07)"}
{"VH": "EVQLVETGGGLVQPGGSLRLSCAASGFTNNSYGISWVRQAPGKGPEWVSVIYSTGRRTFYGDSVKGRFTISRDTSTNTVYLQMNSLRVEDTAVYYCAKGAAAGTFDSWGQGTLVTVSS", "replicates, log10 nM": "n.d. n.d. n.d.", "empty controls": "0/9"}
{"VH": "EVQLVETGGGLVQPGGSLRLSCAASGFTWNQYGISWVRQAPGKGPEWVSVIYSDGRRTFYGDSVKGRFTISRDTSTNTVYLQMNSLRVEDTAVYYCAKGRAAGTFDSWGQGTLVTVSS", "replicates, log10 nM": "n.d. n.d. 3.31", "empty controls": "2/9 (4.07)"}
{"VH": "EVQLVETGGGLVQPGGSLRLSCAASGFTTNSYGISWVRQAPGKGPEWVSVIYADGRRTFYGDSVKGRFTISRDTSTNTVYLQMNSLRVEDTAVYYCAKGRAAGTFDVWGQGTLVTVSS", "replicates, log10 nM": "0.95 1.39 1.41", "empty controls": "5/9 (5.13)"}
{"VH": "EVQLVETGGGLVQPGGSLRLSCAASGFTLNSYGISWVRQAPGKGPEWVSVIYEDGRRTFYIDSVKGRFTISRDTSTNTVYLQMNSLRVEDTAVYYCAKGRAAGDFDSWGQGTLVTVSS", "replicates, log10 nM": "n.d. n.d. n.d.", "empty controls": "0/9"}
{"VH": "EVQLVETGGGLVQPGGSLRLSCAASGFTLNSYGISWVRQAPGKGPEWVSVIYSDGRRTFYGDSVRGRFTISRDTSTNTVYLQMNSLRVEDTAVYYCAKGRAAGTFDSWGQGTLVTVSS", "replicates, log10 nM": "n.d. 5.76 4.41", "empty controls": "6/9 (4.38)"}
{"VH": "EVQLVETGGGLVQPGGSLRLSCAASGFTLQSYGIEWVRQAPGKGPEWVSVIYSDGRRTFYGDSVKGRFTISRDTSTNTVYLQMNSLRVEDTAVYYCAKGRAAGTFDGWGQGTLVTVSS", "replicates, log10 nM": "n.d. n.d. n.d.", "empty controls": "1/9 (2.48)"}
{"VH": "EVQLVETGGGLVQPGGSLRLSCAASGFTLNSYGQSWVRQAPGKGPEWVSVIYSDGRRTFYGDSVKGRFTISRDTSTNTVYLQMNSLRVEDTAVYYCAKGRAAGTFDSWGQGTLVTVSS", "replicates, log10 nM": "3.35 5.00 n.d.", "empty controls": "1/9 (3.09)"}
{"VH": "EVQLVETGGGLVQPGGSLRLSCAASGFTLNSYGISWVRQAPGKGPEWVSVLYSDGRRTFYGDSGKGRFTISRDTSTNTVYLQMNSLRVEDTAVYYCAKGRASGTFDSWGQGTLVTVSS", "replicates, log10 nM": "5.38 n.d. 4.46", "empty controls": "0/9"}
{"VH": "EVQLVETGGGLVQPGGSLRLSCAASGFTLNSYGISWVRQAPGKGPEWVSVIYSDGRRTQYGDSVKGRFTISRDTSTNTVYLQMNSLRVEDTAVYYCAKNRDAGTFDSWGQGTLVTVSS", "replicates, log10 nM": "n.d. n.d. n.d.", "empty controls": "0/9"}
{"VH": "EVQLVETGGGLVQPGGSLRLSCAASGKTLNSYPISWVRQAPGKGPEWVSVIYSDGRRTFYGDSVKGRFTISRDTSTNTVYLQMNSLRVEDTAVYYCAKGRAAGTFDSWGQGTLVTVSS", "replicates, log10 nM": "n.d. n.d. n.d.", "empty controls": "1/9 (3.73)"}
{"VH": "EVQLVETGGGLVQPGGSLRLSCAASGFTLNCYGISWVRQAPGKGPEWVSVIYSDGRRTFYGDSVKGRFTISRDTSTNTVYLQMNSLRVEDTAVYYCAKGRAAGTFNSWGQGTLVTVSS", "replicates, log10 nM": "n.d. n.d. n.d.", "empty controls": "0/9"}
{"VH": "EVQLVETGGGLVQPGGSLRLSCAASGFTLNSYGISWVRQAPGKGPEWVSVIYSDVRDTFYGDSWKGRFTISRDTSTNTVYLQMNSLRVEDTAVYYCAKGRAAGTFDSWGQGTLVTVSS", "replicates, log10 nM": "4.33 n.d. 4.36", "empty controls": "1/9 (3.67)"}

2 of these entries, quoted again:

VH	replicates, log10 nM	empty controls
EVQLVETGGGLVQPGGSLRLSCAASGFTLNSYGISWVRQAPGKGPEWVSEIYSDGRRTEYGDSVKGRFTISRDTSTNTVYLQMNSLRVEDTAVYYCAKGRAAGTFFSWGQGTLVTVSS	n.d. n.d. 3.61	4/9 (4.03)
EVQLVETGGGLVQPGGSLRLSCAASGFTLNSYGISWVRQAPGKGPEWVSVIYEDGRRTFYIDSVKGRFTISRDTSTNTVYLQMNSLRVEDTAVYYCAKGRAAGDFDSWGQGTLVTVSS	n.d. n.d. n.d.	0/9

For reference, the parent read 0.65 as the reference entry and 4.11 (one replicate of three) as a member of this library. Empty control strains, which show no peptide, gave a signal in 15% of pairings with library AAYL49; the median was 4.06 and 95% of these signals were weaker than 2.83. No background was subtracted. Also given: how often the same scFv was detected with the empty control strains, with their mean in brackets.